According to patent US12564559B2, “Combinations of LSD1 inhibitors for use in the treatment of solid tumors” (Oryzon Genomics, S.A., priority 2016, dated 2026):

Test system: SCLC and NSCLC cell lines
Experiment: Synergy Score (Loewe additivity, ATPLite growth inhibition) of combinations with the LSD1 inhibitor, Example 2 / Table 4
Settings: 2nd API combined with (trans)-N1-((1R,2S)-2-phenylcyclopropyl)cyclohexane-1,4-diamine; for Synergy Scores in NSCLC A549: NSCLC cell line A549; for Synergy Scores in NSCLC CAL-12T: NSCLC cell line CAL-12T; for Synergy Scores in NSCLC NCI-H441: NSCLC cell line NCI-H441; for Synergy Scores in SCLC NCI-H187: SCLC cell line NCI-H187; for Synergy Scores in SCLC NCI-H446: SCLC cell line NCI-H446; for Synergy Scores in SCLC NCI-H510: SCLC cell line NCI-H510; for Synergy Scores in SCLC NCI-H1048: SCLC cell line NCI-H1048; for Synergy Scores in SCLC NCI-H1417: SCLC cell line NCI-H1417; for Synergy Scores in SCLC NCI-H1876: SCLC cell line NCI-H1876; for Synergy Scores in SCLC SBC-5: SCLC cell line SBC-5

Row | Compound | Synergy Scores in NSCLC A549 | Synergy Scores in NSCLC CAL-12T | Synergy Scores in NSCLC NCI-H441 | Synergy Scores in SCLC NCI-H187 | Synergy Scores in SCLC NCI-H446 | Synergy Scores in SCLC NCI-H510 | Synergy Scores in SCLC NCI-H1048 | Synergy Scores in SCLC NCI-H1417 | Synergy Scores in SCLC NCI-H1876 | Synergy Scores in SCLC SBC-5
1 | CCN1CCN(c2ccc(Nc3cc(N(C)C(=O)Nc4c(Cl)c(OC)cc(OC)c4Cl)ncn3)cc2)CC1 [BGJ398, 3-(2,6-dichloro-3,5-dimethoxyphenyl)-1-(6-((4-(4-ethylpiperazin-1-yl)phenyl)amino)pyrimidin-4-yl)-1-methylurea] | 0.16 | 0.49 | 0.17 | 9.26 | 17.33 | 4.42 | 9.55 | 9.66 | 19.85 | 0.69
2 | O=C(/C=C/c1cccc(S(=O)(=O)Nc2ccccc2)c1)NO [Belinostat, (22E)-N-Hydroxy-3-[3-(phenylsulfamoyl)phenyl]prop-2-enamide] | 0.52 | 0.42 | 0.66 | 14.35 | 3.21 | 15.72 | 1.61 | 19.12 | 9.05 | 1.84
3 | O=C(NC(NC(=S)Nc1ccc(F)c([N+](=O)[O-])c1)C(Cl)(Cl)Cl)C(c1ccccc1)c1ccccc1 (stereo not drawn) [CGK 733, α-Phenyl-N-[2,2,2-trichloro-1-[[[(4-fluoro-3-nitrophenyl)amino]thioxomethyl]amino]ethyl]benzeneacetamide] | 3.07 | 0.39 | 0.27 | 3.35 | 5.16 | 3.03 | 1.21 | 0.91 | 4.59 | 0.78
4 | N.N.[Cl][Pt][Cl] [Cisplatin, (SP-4-2)-diamminedichloroplatinum(II)] | 0.04 |  |  | 4.91 |  | 9.89 |  | 15.96 | 5.34 | 
5 | COc1cccc2c1C(=O)c1c(O)c3c(c(O)c1C2=O)C[C@@](O)(C(=O)CO)C[C@@H]3O[C@H]1C[C@H](N)[C@H](O)[C@H](C)O1 [Doxorubicin, (7S,9S)-7-[(2R,4S,5S,6S)-4-amino-5-hydroxy-6-methyloxan-2-yl]oxy-6,9,11-trihydroxy-9-(2-hydroxyacetyl)-4-methoxy-8,10-dihydro-7H-tetracene-5,12-dione] | 0.45 |  | 6.86 | 6.85 | 4.93 | 15.96 | 3.13 | 33.43 | 3.74 | 
6 | O=C(O)CCNc1cc(N2CCc3ccccc3CC2)nc(-c2ccccn2)n1 [GSK-J1, N-[2-(2-Pyridinyl)-6-(1,2,4,5-tetrahydro-3H-3-benzazepin-3-yl)-4-pyrimidinyl]-β-alanine] | 0.07 | 0.01 | 0.09 | 2.14 | 0.03 | 3.80 | 0.23 | 2.26 | 10.21 | 0.85
7 | Nc1ccn([C@@H]2O[C@H](CO)[C@@H](O)C2(F)F)c(=O)n1 [Gemcitabine, 4-amino-1-(2-deoxy-2,2-difluoro-β-D-erythro-pentofuranosyl)pyrimidin-2(1H)-on] |  | 0.58 | 6.78 | 19.43 |  | 23.37 |  | 15.18 | 2.74 | 0.33
8 | CCc1c2c(nc3ccc(OC(=O)N4CCC(N5CCCCC5)CC4)cc13)-c1cc3c(c(=O)n1C2)COC(=O)[C@]3(O)CC [Irinotecan, (S)-4,11-diethyl-3,4,12,14-tetrahydro-4-hydroxy-3,14-dioxo1H-pyrano[3′,4′:6,7]-indolizino[1,2-b]quinolin-9-yl-[1,4′bipiperidine]-1′-carboxylate] | 0.02 | 0.14 | 3.45 | 13.74 |  | 17.17 | 2.00 | 21.62 | 8.75 | 0.48
9 | CC1=CC(=O)c2ccccc2C1=O [Menadione, 2-Methylnaphthalene-1,4-dione] | 0.06 | 0.01 | 0.02 | 3.89 | 0.06 | 3.63 | 0.45 | 4.18 | 8.81 | 0.52
10 | COc1ccc(C2=N[C@@H](c3ccc(Cl)cc3)[C@@H](c3ccc(Cl)cc3)N2C(=O)N2CCNC(=O)C2)c(OC(C)C)c1 [Nutlin-3A, 2-Piperazinone,4-[[(4S,5R)-4,5-bis(4-chlorophenyl)-4,5-dihydro-2-[4-methoxy-2-(1-methylethoxy)phenyl]-1H-imidazol-1-yl]carbonyl]-] | 0.04 | 0.11 | 0.36 | 1.56 | 0.36 | 1.63 | 0.29 | 2.56 | 7.24 | 0.48
11 | OCCn1cc(-c2cnc3nnn(Cc4ccc5ncccc5c4)c3n2)cn1 [PF-04217903, 4-[1-(6-quinolinylmethyl)-1H-l,2,3-triazolo[4,5-b]pyrazin-6-yl]-1H-pPyrazole-1-ethanol] | 0.07 | 0.15 | 0.16 | 0.99 | 0.01 | 1.11 | 0.56 | 0.81 | 6.68 | 0.49
12 | LY-2603618 | 0.20 | 1.46 | 2.22 | 6.47 | 0.37 |  | 1.47 | 1.05 | 11.98 | 0.87
